Legend:
Experiment in all cases: ALDH isoform-specific enzyme assay (NADH absorbance 340 nm)
Assay type in all cases: biochemical
ALDH3A1 = molecular target: T1, ALDH3A1 (Homo sapiens, UniProt P30838); conditions: Study 1; read-out: IC50s ALDH3A1
T1 construct: purchased R & D Systems, Inc, Minneapolis, Minn., USA
T1 sequence (P30838 1-453): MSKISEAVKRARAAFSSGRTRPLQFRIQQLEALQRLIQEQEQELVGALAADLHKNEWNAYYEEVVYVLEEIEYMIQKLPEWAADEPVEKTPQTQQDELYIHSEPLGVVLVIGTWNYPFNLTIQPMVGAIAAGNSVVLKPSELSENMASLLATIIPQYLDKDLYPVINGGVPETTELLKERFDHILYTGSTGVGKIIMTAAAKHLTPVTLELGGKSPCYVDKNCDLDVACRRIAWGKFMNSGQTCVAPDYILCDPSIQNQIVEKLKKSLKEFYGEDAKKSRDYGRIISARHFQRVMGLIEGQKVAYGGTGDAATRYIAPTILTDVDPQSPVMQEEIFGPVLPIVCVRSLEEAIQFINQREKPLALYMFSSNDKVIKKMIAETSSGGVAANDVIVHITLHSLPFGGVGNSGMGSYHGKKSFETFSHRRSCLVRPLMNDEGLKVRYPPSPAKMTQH

The chains behind the UniProt entries cited, without tags or fusion partners. Where a name states a change or a piece, a line headed by the entry shows the natural chain unless it says otherwise.
UniProt P00352: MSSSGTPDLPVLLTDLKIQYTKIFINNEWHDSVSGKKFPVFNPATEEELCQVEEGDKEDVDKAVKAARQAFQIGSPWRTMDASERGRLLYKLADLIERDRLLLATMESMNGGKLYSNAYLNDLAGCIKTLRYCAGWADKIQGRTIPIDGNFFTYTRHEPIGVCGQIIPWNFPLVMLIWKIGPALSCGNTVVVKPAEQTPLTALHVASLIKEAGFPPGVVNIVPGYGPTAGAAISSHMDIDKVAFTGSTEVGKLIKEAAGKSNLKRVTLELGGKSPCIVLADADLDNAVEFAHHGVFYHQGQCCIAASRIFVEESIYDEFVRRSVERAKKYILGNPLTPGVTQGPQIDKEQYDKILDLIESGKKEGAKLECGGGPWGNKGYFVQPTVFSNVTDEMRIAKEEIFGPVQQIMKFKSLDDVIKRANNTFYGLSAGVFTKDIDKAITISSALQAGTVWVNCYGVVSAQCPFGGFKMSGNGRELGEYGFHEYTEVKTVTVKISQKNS

ALDH2 = molecular target: T2, ALDH2 (Homo sapiens, UniProt P05091); conditions: Study 1; read-out: IC50s ALDH2
T2 construct: purchased R & D Systems, Inc, Minneapolis, Minn., USA
T2 sequence (P05091 18-517): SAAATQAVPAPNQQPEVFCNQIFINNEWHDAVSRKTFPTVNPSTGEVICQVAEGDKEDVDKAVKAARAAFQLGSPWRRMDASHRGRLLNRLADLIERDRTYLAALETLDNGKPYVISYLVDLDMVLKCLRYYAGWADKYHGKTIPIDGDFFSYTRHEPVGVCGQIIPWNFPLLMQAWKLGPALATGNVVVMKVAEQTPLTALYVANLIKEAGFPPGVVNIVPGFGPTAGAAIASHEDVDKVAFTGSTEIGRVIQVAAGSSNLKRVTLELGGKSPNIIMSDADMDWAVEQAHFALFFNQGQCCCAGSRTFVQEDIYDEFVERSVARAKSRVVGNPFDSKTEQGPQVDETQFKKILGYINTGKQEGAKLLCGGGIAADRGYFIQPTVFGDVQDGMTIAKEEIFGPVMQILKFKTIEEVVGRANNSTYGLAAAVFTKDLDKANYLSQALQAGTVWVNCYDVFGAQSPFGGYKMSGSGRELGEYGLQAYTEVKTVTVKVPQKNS

ALDH1A1 = molecular target: T3, ALDH1A1 (Homo sapiens, UniProt P00352); conditions: Study 1; read-out: IC50s ALDH1A1
T3 construct: purchased R & D Systems, Inc, Minneapolis, Minn., USA

Substance: CVT10216
- IC50 (ALDH3A1): 2720 nM
- IC50 (ALDH2): 53 nM
- IC50 (ALDH1A1): 2430 nM
